Results from PubChem BioAssay AID2023 (NMMLSC, 2009).
Only a part is listed here, and it is no random draw. Some of these compounds have results that are not shown, active ones among them. Calls of active or inactive are those of the source.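 The calls were made as follows: active = GFP response vs DMSO above a set limit, about the screen mean plus 3 SD (cut at about 150% in these data); inconclusive = under 70 cell events counted for the yeast strain; inactive = the rest.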

Assay: TOR pathway LAP4-GFP level changes – S. cerevisiae, multiplex flow cytometry, MLPCN library, primary screen (AID 2023)
Conditions: 3 h, at 10 µM, active compounds read high, median GFP as percent of DMSO wells

| Compound | GFP response vs DMSO |
| --- | --- |
| CN(C)C1(CNC(=O)c2ccc(Br)cc2)CCCCC1 | inactive: 98.4% |
| COc1cc(C(=O)NCC2(N(C)C)CCCCC2)c([N+](=O)[O-])cc1OC | inactive: 91.9% |
| COc1ccc(Cl)cc1C(=O)NCC1(N(C)C)CCCCC1 | inactive: 104% |
| COc1cccc(C(=O)NCC2(N3CCCCC3)CCCCC2)c1 | inactive: 97.8% |
| O=C(NCC1(N2CCCCC2)CCCCC1)c1cccc(Cl)c1 | inactive: 96.5% |
| O=C(OC1CN2CCC1CC2)C(CO)(c1ccccc1)c1ccccc1 (centres undefined) | inactive: 100% |
| COc1ccc(Br)c(C(=O)NCC2(N3CCCCC3)CCCCC2)c1 | inactive: 97.6% |
| CC(C)Oc1ccc(C(=O)NCC2(N(C)C)CCCCC2)cc1 | inactive: 94.6% |
| CN(C)c1cccc(C(=O)NCC2(N(C)C)CCCCC2)c1 | inactive: 107% |
| O=C(NCC1(N2CCCCC2)CCCCC1)c1cc([N+](=O)[O-])ccc1Cl | inactive: 98.8% |
| CN1[C@@H]2CC[C@H]1CC(OC(=O)C(O)(c1ccccc1)c1ccccc1)C2 (some centres undefined) | inactive: 102% |
| COc1cc(SC)ccc1C(=O)NCC1(N(C)C)CCCCC1 | inactive: 87.2% |
| CCN(CC)CC(C)C(C)OC(=O)C(O)(c1ccccc1)c1ccccc1 (centres undefined) | inactive: 111% |
| CC(C)N1C(=O)CC2(CCN(CCOC(=O)C(O)(c3ccccc3)c3ccccc3)CC2)C1=O | inactive: 97.4% |
| Cc1ccc(C(=O)NCC2(N3CCCCC3)CCCCC2)cc1 | inactive: 93% |
| CN(C)c1ccc(C(=O)NCC2(N(C)C)CCCCC2)cc1 | inactive: 98.7% |
| CN(C)C1CCCC1OC(=O)C(O)(c1ccccc1)c1ccccc1 (centres undefined) | inactive: 95.2% |
| Cc1ccccc1C(=O)NCC1(N2CCCCC2)CCCCC1 | inactive: 98.8% |
| O=C(NCC1(N2CCCCC2)CCCCC1)c1cc(F)c(F)cc1Cl | inactive: 93.5% |
| C=CCN1CCN(CCOC(=O)C(O)(c2ccccc2)c2ccccc2)CC1 | inactive: 99.9% |
| COc1ccc(C(=O)NCC2(N(C)C)CCCCC2)cc1 | inactive: 93.8% |
| O=C(NCC1(N2CCCCC2)CCCCC1)c1cccc(Br)c1 | inactive: 100% |
| CCN1CCCC(OC(=O)C2(O)c3ccccc3C=Cc3ccccc32)C1 (centres undefined) | inactive: 86.4% |
| Cc1cc(C(=O)NCC2(N3CCCCC3)CCCCC2)ccc1[N+](=O)[O-] | inactive: 75.1% |
